Test results reported in patent publication US8357695B2, “Hydrates of 2-chloro-5-[3,6-dihydro-3-methyl-2,6-dioxo-4-(trifluoromethyl)-1-(2H)-pyrimidinyl]-4-fluoro-N-[[methyl(1-methylethyl)amino]sulfonyl]benzamide” (BASF SE, priority 2006, dated 2013).

How the values were obtained:
Kochia scoparia = conditions: harmful plant Kochia scoparia, post-emergence, 20 g/ha a.s.
Description: (§1) The seeds of the test plants were sown separately for each species.
(§2) The test period extended over 2 to 4 weeks.

Viola arvensis = conditions: harmful plant Viola arvensis
Description: as §1, §2

Veronica persicaria = conditions: harmful plant Veronica persicaria, 15 g/ha a.s.
Description: as §1, §2

Triticum aestivum = conditions: useful plant Triticum aestivum, 20 g/ha a.s.
Description: as §1, §2

Galium aparine = conditions: harmful plant Galium aparine, post-emergence + 1 l/ha Rustica Öl, 15 g/ha a.s.
Description: as §1, §2

Sonchus arvensis = conditions: harmful plant Sonchus arvensis, post-emergence, 15 g/ha a.s.
Description: as §1, §2

Sinapis arvensis = conditions: harmful plant Sinapis arvensis, post-emergence, 10 g/ha a.s.
Description: as §1, §2

Mercurialis annua = conditions: harmful plant Mercurialis annua, pre-emergence, 6.25 g/ha a.s.
Description: as §1, §2

Veronica hederaefolia = conditions: harmful plant Veronica hederaefolia, post-emergence + 1 l/ha Rustica Öl, 15 g/ha a.s.
Description: as §1, §2

Chenopodium album = conditions: harmful plant Chenopodium album, post-emergence + 1 l/ha Rustica Öl, 15 g/ha a.s.
Description: as §1, §2

[1] = tested on: Salsola kali ssp. ruthenica; conditions: harmful plant Salsola kali ssp. ruthenica, post-emergence, 20 g/ha a.s.
Description: as §1, §2

Amaranthus retroflexus = conditions: harmful plant Amaranthus retroflexus, post-emergence, 10 g/ha a.s.
Description: as §1, §2

Ambrosia elatior = conditions: harmful plant Ambrosia elatior, pre-emergence, 12.5 g/ha a.s.
Description: as §1, §2

Capsella bursa-pastoris = conditions: harmful plant Capsella bursa-pastoris, post-emergence, 15 g/ha a.s.
Description: as §1, §2

[2] = tested on: Hordeum vulgare (spring barley); conditions: useful plant Hordeum vulgare (spring barley), post-emergence + 1 l/ha Rustica Öl, 20 g/ha a.s.
Description: as §1, §2

Euphorbia heterophylla = conditions: harmful plant Euphorbia heterophylla, pre-emergence
Description: as §1, §2

Matricaria inodora = conditions: harmful plant Matricaria inodora
Description: as §1, §2

Thlaspi arvense = conditions: harmful plant Thlaspi arvense, post-emergence, 10 g/ha a.s.
Description: as §1, §2

Stellaria media = conditions: harmful plant Stellaria media, pre-emergence, 12.5 g/ha a.s.
Description: as §1, §2

[3] = tested on: Hordeum vulgare (winter barley); conditions: useful plant Hordeum vulgare (winter barley)
Description: as §1, §2

Helianthus annuus = conditions: harmful plant Helianthus annuus, pre-emergence, 12.5 g/ha a.s.
Description: as §1, §2

Polygonum convolvulus = conditions: harmful plant Polygonum convolvulus, post-emergence + 1 l/ha Rustica Öl, 15 g/ha a.s.
Description: as §1, §2

Secale cereale = conditions: useful plant Secale cereale
Description: as §1, §2

Glycine max = conditions: useful plant Glycine max, pre-emergence
Description: as §1, §2

test plants = conditions: greenhouse tests, overall conclusion in words
[4] = post-emergence + 1 l/ha Rustica Öl, 5 g/ha a.s.
[5] = post-emergence + 1 l/ha Rustica Öl
[6] = 12.5 g/ha a.s., listed as Modification I
[7] = post-emergence + 1 l/ha Rustica Öl, 15 g/ha a.s.
[8] = post-emergence + 1 l/ha Rustica Öl, 20 g/ha a.s.
[9] = post-emergence + 1 l/ha Rustica Öl, 10 g/ha a.s.

Which Damage (Kochia scoparia) does the source give for `CC(C)N(C)S(=O)(=O)NC(=O)c1cc(-n2c(=O)cc(C(F)(F)F)n(C)c2=O)c(F)cc1Cl` (single isomer, unassigned) [Form I, 2-chloro-5-[3,6-dihydro-3-methyl-2,6-dioxo-4-(trifluoromethyl)-1-(2H)-pyrimidinyl]-4-fluoro-N-[[methyl(1-methylethyl)amino]sulfonyl]benzamide] here?
Its Damage is 45%.

What about the Damage (Viola arvensis; [4]) of the same compound?
The Damage was 40%.

What about the Damage (Viola arvensis; post-emergence, 15 g/ha a.s.) of the same compound?
Its Damage is 40%.

What about the Damage (Veronica persicaria; [5]) of the same compound?
Its Damage is 70%.

What about the Damage (Veronica persicaria; post-emergence) of the same compound?
Its Damage is 40%.

What about the Damage (Triticum aestivum; [5]) of the same compound?
Its Damage is 15%.

And the Damage (Triticum aestivum; post-emergence)?
The Damage was 10%.

What about the Damage (Galium aparine) of the same compound?
The Damage was 75%.

And the Damage (Sonchus arvensis)?
Its Damage is 60%.

And the Damage (Sinapis arvensis)?
Its Damage is 50%.

What about the Damage (Mercurialis annua; listed as Modification I) of the same compound?
The Damage was 40%.

What about the Damage (Veronica hederaefolia) of the same compound?
Its Damage is 50%.

And the Damage (Chenopodium album)?
The Damage was 70%.

What about the Damage [1] of the same compound?
The Damage was 80%.

What about the Damage (Amaranthus retroflexus) of the same compound?
Its Damage is 40%.

What about the Damage (Ambrosia elatior; listed as Modification I) of the same compound?
Its Damage is 60%.

What about the Damage (Capsella bursa-pastoris) of the same compound?
The Damage was 20%.

What about the Damage [2] of the same compound?
Its Damage is 15%.

What about the Damage (Euphorbia heterophylla; 6.25 g/ha a.s., listed as Modification I) of the same compound?
The Damage was 40%.

What about the Damage (Euphorbia heterophylla; [6]) of the same compound?
The Damage was 95%.

And the Damage (Matricaria inodora; [4])?
The Damage was 65%.

What about the Damage (Matricaria inodora; post-emergence, 15 g/ha a.s.) of the same compound?
Its Damage is 65%.

And the Damage (Thlaspi arvense)?
The Damage was 30%.

And the Damage (Stellaria media; listed as Modification I)?
The Damage was 65%.

And the Damage [3, 7]?
Its Damage is 15%.

And the Damage [3, 8]?
Its Damage is 20%.

And the Damage ([3]; post-emergence, 15 g/ha a.s.)?
The Damage was 5%.

What about the Damage (Helianthus annuus; listed as Modification I) of the same compound?
Its Damage is 70%.

And the Damage (Polygonum convolvulus)?
The Damage was 70%.

And the Damage (Secale cereale; [9])?
The Damage was 10%.

And the Damage (Secale cereale; [7])?
Its Damage is 10%.

And the Damage (Secale cereale; [8])?
The Damage was 15%.

What about the Damage (Secale cereale; post-emergence, 20 g/ha a.s.) of the same compound?
The Damage was 15%.

And the Damage (Glycine max; [6])?
Its Damage is 30%.

What about the Damage (Glycine max; 25 g/ha a.s., SC 100 g/l, scale 0-100, listed as Modification I) of the same compound?
The Damage was 70%.

Which results are given for `CC(C)N(C)S(=O)(=O)NC(=O)c1cc(-n2c(=O)cc(C(F)(F)F)n(C)c2=O)c(F)cc1Cl` (single isomer, unassigned) [Form III, 2-chloro-5-[3,6-dihydro-3-methyl-2,6-dioxo-4-(trifluoromethyl)-1-(2H)-pyrimidinyl]-4-fluoro-N-[[methyl(1-methylethyl)amino]sulfonyl]benzamide]?
Damage (Kochia scoparia): 100%; Damage (Viola arvensis; [4]): 100%; Damage (Viola arvensis; post-emergence, 15 g/ha a.s.): 100%; Damage (Veronica persicaria; [5]): 100%; Damage (Veronica persicaria; post-emergence): 100%; Damage (Triticum aestivum; [5]): 10%; Damage (Triticum aestivum; post-emergence): 5%; Damage (Galium aparine): 100%; Damage (Sonchus arvensis): 100%; Damage (Sinapis arvensis): 60%; Damage (Mercurialis annua): 65%; Damage (Veronica hederaefolia): 70%; Damage (Chenopodium album): 80%; Damage [1]: 100%; Damage (Amaranthus retroflexus): 100%; Damage (Ambrosia elatior): 80%; Damage (Capsella bursa-pastoris): 70%; Damage [2]: 5%; Damage (Euphorbia heterophylla; 6.25 g/ha a.s.): 90%; Damage (Euphorbia heterophylla; 12.5 g/ha a.s.): 100%; Damage (Matricaria inodora; [4]): 100%; Damage (Matricaria inodora; post-emergence, 15 g/ha a.s.): 100%; Damage (Thlaspi arvense): 100%; Damage (Stellaria media): 70%; Damage [3, 7]: 5%; Damage [3, 8]: 5%; Damage ([3]; post-emergence, 15 g/ha a.s.): 0%; Damage (Helianthus annuus): 75%; Damage (Polygonum convolvulus): 100%; Damage (Secale cereale; [9]): 0%; Damage (Secale cereale; [7]): 0%; Damage (Secale cereale; [8]): 5%; Damage (Secale cereale; post-emergence, 20 g/ha a.s.): 5%; Damage (Glycine max; 12.5 g/ha a.s.): 20%; Damage (Glycine max; 25 g/ha a.s., SC 100 g/l, scale 0-100): 30%; tolerance by the crop plant in comparison with form I (test plants): improved tolerance by the crop plant

Which “herbicidal activity in comparison with form I” value (test plants) does the source give for `CC(C)N(C)S(=O)(=O)NC(=O)c1cc(-n2c(=O)cc(C(F)(F)F)n(C)c2=O)c(F)cc1Cl` [Form IV, 2-chloro-5-[3,6-dihydro-3-methyl-2,6-dioxo-4-(trifluoromethyl)-1-(2H)-pyrimidinyl]-4-fluoro-N-[[methyl(1-methylethyl)amino]sulfonyl]benzamide] here?
The value was “superior to the former in terms of activity”.

Read-outs that look alike come from different tables or passages of the source.
